{"source": "patent US8344145B2", "about": "“Salts of 2-substituted quinolines” (priority 2008, dated 2013)", "key": {"[1]": {"test_system": "female CD-1 mice", "settings": "5 animals", "description": "(§1) 250 mg of carboxymethylcellulose are dissolved in 50 ml of a 5% glucose solution. 5 ml aliquots containing 0.5% of Tween 80 are emulsified with the quinoline salts (final concentrations at 0.4 mg/ml, 4 mg/ml and 40 mg/ml). The emulsions are subsequently homogenized. The emulsions are administered by force feeding in a single dose to four groups of five female CD-1 mice at the concentrations of 10 mg/kg, 100 mg/kg and 1000 mg/kg and without compounds (control group). The control group receives a glucose-comprising emulsion containing 0.5% of carboxymethyl-cellulose (CMC) and […]. The behavior of the animals is observed and the number of deaths is counted after 1 min, 15 min, 30 min, 1 h, 4 h, 8 h and each day for 14 days. On the final day, a blood sample is taken. Biochemical analyses are carried out in order to evaluate the nephrotoxicity and the hepatotoxicity, the levels of creatinine, of aspartate aminotransferase (ASAT), of alanine aminotransferase (ALAI) and of cholesterol being quantitatively determined."}, "[2]": {"test_system": "female CD-1 mice", "test": "Acute toxicity: blood biochemical parameters on the final day (nephrotoxicity, hepatotoxicity)", "settings": "blood sample on final day (day 14)", "description": "as §1"}}, "note": "Read-outs that look alike come from different tables or passages of the source."}
{"substance": "Camphorsulfonate salt of 2-(hydroxyprop-2-enyl)quinoline", "values": [{"measurement": "acute toxicity observation", "setting": "[1]; single dose 10 mg/kg oral route", "value": "absence of toxicity"}, {"measurement": "acute toxicity observation", "setting": "[1]; single dose 100 mg/kg oral route", "value": "absence of toxicity"}, {"measurement": "mice with bristling hair", "setting": "[1]; single dose 1 g/kg oral route, t15 min", "value": "t15 min - 1 mouse had"}, {"measurement": "acute toxicity observation", "setting": "[1]; single dose 1 g/kg oral route, t1 h", "value": "t1 h - absence of toxicity"}, {"measurement": "ALAT", "setting": "[2]; dose 10 mg/kg oral", "value": "223 ± 74", "unit": "IU/l"}, {"measurement": "ASAT", "setting": "[2]; dose 10 mg/kg oral", "value": "337 ± 80", "unit": "IU/l"}, {"measurement": "Cholesterol", "setting": "[2]; dose 10 mg/kg oral", "value": "3.9 ± 0.3", "unit": "mM"}, {"measurement": "Creatinine", "setting": "[2]; dose 10 mg/kg oral", "value": "<18", "unit": "µM"}, {"measurement": "ALAT", "setting": "[2]; dose 100 mg/kg oral", "value": "247 ± 76", "unit": "IU/l"}, {"measurement": "ASAT", "setting": "[2]; dose 100 mg/kg oral", "value": "397 ± 202", "unit": "IU/l"}, {"measurement": "Cholesterol", "setting": "[2]; dose 100 mg/kg oral", "value": "4.6 ± 0.5", "unit": "mM"}, {"measurement": "Creatinine", "setting": "[2]; dose 100 mg/kg oral", "value": "<18", "unit": "µM"}, {"measurement": "ALAT", "setting": "[2]; dose 1 g/kg oral", "value": "260 ± 131", "unit": "IU/l"}, {"measurement": "ASAT", "setting": "[2]; dose 1 g/kg oral", "value": "388 ± 70", "unit": "IU/l"}, {"measurement": "Cholesterol", "setting": "[2]; dose 1 g/kg oral", "value": "3.4 ± 0.6", "unit": "mM"}, {"measurement": "Creatinine", "setting": "[2]; dose 1 g/kg oral", "value": "20.7 ± 3.1", "unit": "µM"}]}
